System: CDK5 substrate phosphorylation in primary cortical neurons
Assay: Immunohistochemistry of CDK5 substrate phosphorylation in paraffin-embedded primary neurons
Format: cell-based, rat
Conditions: 10 μM inhibitor, 3 h, formaldehyde fixed, Fig. 3b
Experimental: Ethical approval was obtained by review through the Tissue Access Committee of Tayside Tissue Bank (approval # TR338) and the studies follow the Guidelines of the Declaration of Helsinki for the use of human tissues for research. Sections of formalin-fixed, paraffin embedded tissue were cut at a thickness of 4 μm, collected onto Polysine-coated microscope slides (VWR International) and dried overnight at 37 °C. Sections were dewaxed in Histoclear, rinsed in alcohol and endogenous peroxidase was quenched with 0.5 % hydrogen peroxide (100 volumes) in methanol at room temperature for 35 min. After washing in water, antigen retrieval was performed by boiling sections in 10 mM citrate buffer, pH 6.0 for 15 min in a microwave. After cooling, sections were rinsed in PBS and blocked with 5 % normal serum in PBS containing 5 % (v/v) avidin (Vector Laboratories, Peterborough, UK) for 30 min at room temperature. Sections were washed in PBS and incubated with primary antibody in 5 % normal serum in PBS containing 5 % (v/v) biotin at 4 °C overnight. After washing in PBS, sections were then incubated with biotinylated secondary antibody (1:250) (Vector Laboratories) for 30 min at room temperature, followed by streptavidin complexed with biotinylated peroxidase (Vectastain ABC kit; Vector Laboratories) at room temperature for 30 min. The peroxidase complexes were visualized using 0.25 mg/ml diaminobenzidine tetrahydrochloride (DAB) (Sigma) in PBS containing 5 mM imidazole (pH 7.0) and 0.075 % hydrogen peroxide for 10 min at room temperature. Cell nuclei were counterstained with haematoxylin (Sigma), dehydrated through graded alcohols, cleared in HistoClear and mounted in DPX. Images were taken using a Spot Insight QE digital camera or slides were digitally scanned (x40) using an Aperio ScanScope XT.
[…]. […] Scale bar = 100 μm.

CC[C@H](CO)Nc1nc(NCc2ccccc2)c2ncn(C(C)C)c2n1 [roscovitine]
Intensity of staining and number of cells stained for phospho-Ser522 of CRMP2 (immunohistochemistry): reduced
Tau phosphorylation at Ser235 (immunohistochemistry): not significantly affected
Tau phosphorylation at Thr205 (immunohistochemistry): not significantly affected

— paper PMC4640224, “Phosphorylation of a splice variant of collapsin response mediator protein 2 in the nucleus of tumour cells links cyclin dependent kinase-5 to oncogenesis” (BMC Cancer, 2015)
